Data taken from PMC9747113 (Clinical and Translational Science, 2022).

Assay: Population PK model of evobrutinib plasma concentration-time data

- Food on D 1 (covariate effect, fed D1 = D1*(1 + 4.27)): 4.27
- Zero-order absorption D 1 (duration of zero-order input) (fasted condition): 0.181 h
- D 1 (duration of zero-order input) (fed condition (low-fat meal)): 0.954 h
- Increase of duration of the first-order input with food compared with fasted (low-fat meal vs fasted): 427%
SMILES: C=CC(=O)N1CCC(CNc2ncnc(N)c2-c2ccc(Oc3ccccc3)cc2)CC1 [evobrutinib, Evobrutinib]
